Test results: patent US11236085B2, “PD-1/PD-L1 inhibitors” (Gilead Sciences, Inc., priority 2018, dated 2022)

The chains behind the UniProt entries cited, without tags or fusion partners. Residues count along the entry.
UniProt Q9NZQ7, 19-238 limits assumed: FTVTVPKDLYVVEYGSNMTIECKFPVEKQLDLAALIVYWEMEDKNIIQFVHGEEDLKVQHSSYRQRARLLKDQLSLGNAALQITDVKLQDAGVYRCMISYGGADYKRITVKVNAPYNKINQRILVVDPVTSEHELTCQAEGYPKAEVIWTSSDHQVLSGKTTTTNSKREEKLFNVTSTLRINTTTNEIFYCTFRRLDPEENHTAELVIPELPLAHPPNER
UniProt Q9NZQ7, 19-290 limits assumed: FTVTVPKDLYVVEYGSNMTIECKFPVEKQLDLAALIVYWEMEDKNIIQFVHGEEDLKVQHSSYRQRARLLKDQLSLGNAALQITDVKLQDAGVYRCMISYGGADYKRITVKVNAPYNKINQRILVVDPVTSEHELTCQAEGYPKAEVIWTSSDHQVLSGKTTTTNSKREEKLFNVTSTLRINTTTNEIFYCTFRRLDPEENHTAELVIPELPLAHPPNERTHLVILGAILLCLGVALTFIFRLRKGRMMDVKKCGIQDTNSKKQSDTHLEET

Assays:
PD-1/PD-L1 [1] = biological target: T1, PD-1/PD-L1 (Homo sapiens, UniProt Q9NZQ7); assay: PD-1/PD-L1 NFAT reporter assay (co-culture of aAPC-PD-L1 CHO cells and Jurkat cells overexpressing PD-1, NFAT luciferase); conditions: read-out: EC50 NFAT Luciferase; co-culture incubated for 6 hrs at 37° C.; luciferase under NFAT control
Experimental: PD-1/PD-L1 NFAT Reporter Assay
Compounds were tested in a functional co-culture reporter assay in which TCR-mediated NFAT activity is inhibited by the engagement of PD-1 with PD-L1. […] CHO cells expressing surface-bound anti-CD3 antibodies and PD-L1 (artificial antigen presenting cells, aAPC-PD-L1) were first seeded overnight. Jurkat cells overexpressing PD-1 and expressing a luciferase construct under NFAT control are diluted in RPMI assay medium (RPMI 1640 with 2% FBS), mixed with compounds, and immediately seeded on the monolayer of aAPC-PD-L1. The co-culture is then incubated for 6 hrs at 37° C. Luciferase activity is assessed by adding the ONE-Glo reagent and measuring luminescence with a plate reader. EC50 values are calculated from the fit of the dose-response curves to a four-parameter equation (Table 4).

PD-1/PD-L1 [2] = biological target: T1, PD-1/PD-L1; assay: PD-1/PD-L1 biochemical protein-protein interaction assay (ALPHA); conditions: read-out: IC50 PD-L1-PD1; 0.3 nM His tagged PD-L1, 2.5 nM biotinylated Fc-PD-1; 60 minutes at 25° C.
Experimental: PD-1/PD-L1 & CTLA/CD80 Biochemical Protein-Protein Interaction Assay
Compounds were tested in biochemical protein-protein interaction assays to determine if they can specifically block the interaction between the extracellular domains of PD-1/PD-L1 or CTLA/CD80. Binding of the protein pairs is measured using a bead based Amplified Luminescent Proximity Homogeneous Assay (ALPHA) platform. Binding of each protein pair results in proximity of the donor and acceptor beads which leads to an increase in ALPHA signal. Disruption of the protein-protein interaction with a test compound results in a decrease in ALPHA signal. Assays are performed in 25 mM Hepes (pH 7.4), 150 mM NaCl, 3.4 mM EDTA, 0.005% Tween 20, and 0.01% BSA. Final protein concentration in the assays were 0.3 nM (His tagged PD-L1), 2.5 nM (biotinylated Fc-PD-1), 1 nM (His tagged CTLA4) and 1 nM (biotinylated CD80). After an assay reaction time of 60 minutes at 25° C., binding was measured with addition of 20 μg/mL ALPHA assay acceptor beads (anti-His coated) and 20 µg/mL ALPHA assay donor beads (streptavidin coated). IC50 values were calculated from the fit of the dose-response curves to a four-parameter equation. Representative data are shown below in Table 3.

PD-L1 = PD-L1 (Homo sapiens, UniProt Q9NZQ7); assay: PD-L1/PD-L1 dimerization biochemical protein-protein interaction assay (ALPHA); conditions: read-out: AC50 PDL1 Dimer 1 nM; 0.5 nM His tagged PD-L1 and 0.5 nM FLAG tagged PD-L1; compound induced dimerization
Experimental: PD-L1/PD-L1 Dimerization Biochemical Protein-Protein Interaction Assay
Compounds were tested in biochemical protein-protein interaction assays to determine if they can specifically dimerize the extracellular domains of PD-L1. Dimerization of the proteins (His-tagged PD-L1 and FLAG-tagged PD-L1) is measured using a bead based Amplified Luminescent Proximity Homogeneous Assay (ALPHA) platform. […] Assays are performed in 25 mM Hepes (pH 7.4), 150 mM NaCl, 3.4 mM EDTA, 0.005% Tween 20, and 0.01% BSA. Final protein concentration in the assays were 0.5 nM (His tagged PD-L1) and 0.5 nM (FLAG tagged PD-L1). After an assay reaction time of 2 hours at 25° C., 20 μg/mL (final assay concentration) ALPHA assay acceptor beads (anti-His coated) were added and incubated for 60 minutes at 25° C. Binding was measured following a final 60 minute incubation with 40 μg/mL (final assay concentration) ALPHA assay donor beads (anti-FLAG coated). AC50 values were calculated from the fit of the dose-response curves to a four-parameter equation (Table 4).

SMILES: CC(=O)NC1CNCc2cc(-c3cccc(-c4cccc(COc5cc(OCc6cncc(C#N)c6)c(CN[C@@](C)(CO)C(=O)O)cc5Cl)c4C)c3C)ccc21 (stereo partly drawn)
- EC50 (PD-1/PD-L1 [1]): 70 nM
- IC50 (PD-1/PD-L1 [2]): 0.064 nM
- AC50 (PD-L1): 11.4 nM
